Test results taken from patent US11413322B2, “Immunotherapy for angiogenic disease” (International Institute of Cancer Immunology, Inc., priority 2014, dated 2022).

Test system: laser-induced choroid coat angiogenesis
Test: Mouse model of laser-induced choroid coat angiogenesis, WT1 peptide vaccine (Example 1)
Format: in vivo, mouse (C57BL/6J)
Excerpt: Two species of WT1 peptides: WT1126 (Arg Met Phe Pro Asn Ala Pro Tyr Leu (SEQ ID NO: 1)) and WT135 (Ala Pro Val Leu Asp Phe Ala Pro Pro Gly Ala Ser Ala Tyr Gly Ser Leu Gly (SEQ ID NO: 27)), were used as test substances.
Male C57BL/6J mice (provided by CLEA Japan, Inc.) were used. At the beginning of the experiment, the mice were 8 weeks old (body weight: about 20 to 25 g). The mice were free-fed with laboratory chow (manufactured by Oriental Yeast Co., Ltd.) and tap water. Six mice were used for each administration group.
As a WT1 peptide, WT1126 or WT135 was dissolved in sterilized PBS so that the concentration of the solution was 22.7 mg/mL. The resultant was diluted to 0.227 or 2.27 mg/mL with sterilized PBS. The resultant WT1 solution and Montanide ISA51 VG were mixed so that the volume ratio was 1:1.27 to prepare emulsions of 0.1 μg/μL, 1 μg/μL, and 10 μg/μL. Each of the emulsions was intracutaneously administered at 10 μL/body. Administered doses were 1 μg/body, 10 μg/body, and 100 μg/body. Timing of administrations were on 15, 22, 29, and 36 days after photocoagulation.
Specifically, with respect to the mice of administration groups (groups 1 to 4) administered with the test substance (WT1 peptide), the administration was carried out through the following procedure.
(1) Grouping was carried out on the basis of area of fluorescence leakage on 14 days after the photocoagulation.
(3) Abdomen was shaved with hair clippers, and then intracutaneous administration was carried out using a 30 G injection needle. […]
(2) Dilatation of pupils was carried out with Mydrin-P, and then general anesthesia was performed by intramuscular administration at 1 mL/kg of a mixture of Ketalar injection (manufactured by DAIICHI SANKYO COMPANY, LIMITED) and Celactal injection (manufactured by Bayer) (7:1). (3) Fluorescite (Manufactured by Alcon, Inc.) was injected at 0.1 mL/kg via the tail vein, and then fluorescence ocular fundus angiography was carried out using Micron III. (4) An area of fluorescence leakage was calculated using an image analysis software. […]

Substance: Arg Met Phe Pro Asn Ala Pro Tyr Leu (RMFPNAPYL; listed as Homo sapiens) [WT1126, WT1 peptide]
- choroidal neovascular area at 6 weeks after the photocoagulation relative to area at 2 weeks after the photocoagulation (100 μg/body intracutaneous on days 15, 22, 29, 36 after photocoagulation, fluorescence ocular fundus angiography, FIG. 3): about 50%
- choroidal neovascular area, change with administration (vs PBS administration group) (any applied dose of 1, 10 and 100 μg/body intracutaneous, time course 2 to 6 weeks, FIG. 3, FIG. 4): Decrease in choroidal neovascular area; also recorded: decreased
- angiogenesis of the ocular fundus at 6 weeks after the photocoagulation compared to PBS administration group (intracutaneous, fluorescence ocular fundus angiography, FIG. 2): significantly suppressed

Entries after “also recorded” stand apart in the source; their conditions may differ.
